Only a part is listed here, and it is no random draw. Active and inactive are the calls of the source. Cut-off read from the data, not from the text of the source: active = inhibition above about 31%; inactive = the rest.
Experiment: 384-well plate pilot, post-Golgi transport modulator project, inhibition of yeast transport mutant growth (AID 636)
Conditions: absorbance 615 nm, about 18 h, stronger effect = higher value

SMILES	inhibition
Fc1ccccc1NC1CCN(Cc2ccccc2)CC1	inactive: 1.56%

From PubChem BioAssay AID636 (SRMLSC, 2007)
